In ChEMBL document CHEMBL1150535, “Acyclic NK-1 antagonists: 2-benzhydryl-2-aminoethyl ethers” (Bioorg Med Chem Lett, 1994) one finds IC50 data, which are given here for 1 molecule.

Sequences of proteins named here, by UniProt entry; tags and fusion partners are left off.
UniProt P25103, whole entry: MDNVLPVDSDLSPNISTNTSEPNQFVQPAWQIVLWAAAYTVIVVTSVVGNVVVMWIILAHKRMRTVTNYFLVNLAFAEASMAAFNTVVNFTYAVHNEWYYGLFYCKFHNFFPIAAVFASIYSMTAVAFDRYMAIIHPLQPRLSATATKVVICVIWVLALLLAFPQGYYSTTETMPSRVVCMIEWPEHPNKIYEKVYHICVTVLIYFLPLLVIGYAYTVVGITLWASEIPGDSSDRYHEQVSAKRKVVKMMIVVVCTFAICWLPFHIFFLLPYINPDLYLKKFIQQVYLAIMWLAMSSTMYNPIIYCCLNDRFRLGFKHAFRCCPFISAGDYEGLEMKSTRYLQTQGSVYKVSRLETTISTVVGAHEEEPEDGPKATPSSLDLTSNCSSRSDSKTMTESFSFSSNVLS

The target in this test is Substance-P receptor (Homo sapiens, UniProt P25103). Put plainly: Binding affinity towards human Tachykinin receptor 1 expressed in CHO cells by the displacement of [125 I] substance P. Format: cell-based.

As for `NC(COCc1cc(C(F)(F)F)cc(C(F)(F)F)c1)C(c1ccccc1)c1ccccc1` (stereo unspecified), the IC50 was found to be 0.0107 µM. This counts as double-digit nanomolar.
